From patent US10548861B2 (Academia Sinica, priority 2015, dated 2020)

System: primary B-ALL vs normal human tissues
Test: Therapeutic window vs five normal tissues
Assay type: cell-based

## 4-Hydroperoxycyclophosphamide
B-ALL (reference)
  Therapeutic window: 1.00
CD34+ relative to B-ALL
  Therapeutic window: 0.40
